Measured values taken from PubChem BioAssay AID743255 (National Center for Advancing Translational Sciences (NCATS), 2014).
This is a selection; strong and weak results do not stand in their true shares. Inconclusive results are not listed. Active and inactive are the calls of the source. The call rests on the fitted dose curve; in most records, active means well fitted inhibition curve with a large enough effect; inconclusive means small, poorly fitted or top-dose-only effect; inactive means no such curve, though single readings can be large or run the other way.

Chains of the proteins cited; added tags and fusions are not shown.
UniProt O94782, whole entry, looked up: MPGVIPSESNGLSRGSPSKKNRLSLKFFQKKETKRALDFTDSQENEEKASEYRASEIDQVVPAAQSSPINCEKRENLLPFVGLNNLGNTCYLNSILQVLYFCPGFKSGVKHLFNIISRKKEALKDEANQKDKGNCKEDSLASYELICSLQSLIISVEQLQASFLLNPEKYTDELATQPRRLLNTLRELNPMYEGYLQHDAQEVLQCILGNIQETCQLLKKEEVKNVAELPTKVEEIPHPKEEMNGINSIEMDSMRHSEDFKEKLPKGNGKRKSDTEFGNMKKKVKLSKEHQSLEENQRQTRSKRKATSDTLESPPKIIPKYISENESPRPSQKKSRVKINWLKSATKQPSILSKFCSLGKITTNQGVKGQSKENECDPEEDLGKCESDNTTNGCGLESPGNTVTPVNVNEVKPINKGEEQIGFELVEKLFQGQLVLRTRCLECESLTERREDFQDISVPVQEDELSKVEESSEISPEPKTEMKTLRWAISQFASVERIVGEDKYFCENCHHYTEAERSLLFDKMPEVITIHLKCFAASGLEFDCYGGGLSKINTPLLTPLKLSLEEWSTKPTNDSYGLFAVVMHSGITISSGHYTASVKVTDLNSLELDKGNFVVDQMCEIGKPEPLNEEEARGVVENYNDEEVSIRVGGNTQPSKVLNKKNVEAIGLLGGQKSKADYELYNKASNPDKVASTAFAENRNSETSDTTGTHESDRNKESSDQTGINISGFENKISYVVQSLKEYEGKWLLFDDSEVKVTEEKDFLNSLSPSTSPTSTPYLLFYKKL

Biological target: Ubiquitin carboxyl-terminal hydrolase 1 (Homo sapiens) (UniProt O94782)
Assay: Inhibitors of USP1/UAF1: Primary Screen; further: nearly all actives have a fitted effect of over 60% in size
Conditions: recombinant USP1/UAF1, Ub-Rhodamine cleavage fluorescence; at 57.1 µM (top of the series)
Source text: Deubiquitinating enzymes (DUBs) are a class of enzymes that can cleave isopeptide bond formed between the C-terminal carboxylate of ubiquitin and a lysine side-chain amino group on the target protein. Among them, ubiquitin specific proteases (USPs) constitute the largest DUB family. Human USPs are emerging as promising targets for pharmacological intervention because of their connection to a number of human diseases, including prostate, colon and breast cancer (1, 2), pediatric acute lymphoblastic leukemia (3), and familial cylindromatosis (4). The advantage of inhibiting USPs lies in the potential specificity of therapeutic intervention that can lead to better efficacy and reduce nonspecific side effects. In a collaboration between the University of Delaware and the NIH Chemical Genomics Center, a high-throughput screen assay was developed to screen for USP1/UAF1 inhibitors. This miniaturized assay has a fluorescent read-out and is used to screen the NIH Molecular Libraries Small Molecule Repository (MLSMR) in order to identify a small molecule that inhibits USP1. NIH Chemical Genomics Center [NCGC] NIH Molecular Libraries Probe Centers Network [MLPCN] MLPCN Grant: DA030552 Assay Submitter (PI): Zhihao Zhuang, University of Delaware 1. Priolo, C., et al. (2006) The isopeptidase USP2a protects human prostate cancer from apoptosis. Cancer Res 66, 8625-8632 2. Popov, N., et al. (2007) The ubiquitin-specific protease USP28 is required for MYC stability. Nat Cell Biol 9, 765-774 3. De Pitta, C., et al. (2005) A leukemia-enriched cDNA microarray platform identifies new transcripts with relevance to the biology of pediatric acute lymphoblastic leukemia. Haematologica 90, 890-898 4. Kovalenko, A., et al. (2003) The tumour suppressor CYLD negatively regulates NF-kappaB signalling by deubiquitination. Nature 424, 801-805
3 microliters of reagents (buffer in columns 3 and 4 as negative control and 1nM USP1/UAF1 complex in columns 1, 2, and 5-48) are dispensed into Greiner black solid bottom 1536-well assay plates. Compounds are then transferred via Kalypsys pin tool equipped with 1536-pin array (10nl slotted pins, V&P Scientific, San Diego, CA). Following an incubation step of 15 min at room temperature, 1ul of Ub-Rho substrate (150nM final concentration) is added to initiate the reaction. The plates are immediately centrifuged at 1000 rpm for 15 seconds, and subsequently transferred to a ViewLux high-throughput CCD imager (PerkinElmer) wherein kinetic measurements of fluorescence are acquired using 480 nm excitation/540 nm emission filter set (6 reads every 60 seconds, see Table 1). All reagents are diluted in an assay buffer consisting of 50mM HEPES (pH 7.8), 0.5mM EDTA, 0.1 mg/ml BSA, 1mM TCEP, and 0.01% Tween-20.
On the % scale 0 is the no-effect control and ±100 the full control effect.

Q: For Cc1ccc(C(=O)NCC2(N3CCCCC3)CCCCC2)o1, which activity change, negative = inhibition is on record?
A: inactive: -4.52%

Q: Fc1ccccc1NC1CCN(Cc2ccccc2)CC1 was tested. Which activity change, negative = inhibition did it give?
A: inactive: 6.53%

Q: With Cc1ccc(NC2(C#N)CCN(Cc3ccccc3)CC2)cc1 as the molecule, how does the activity change, negative = inhibition read?
A: inactive: 1.51%

Q: For CC(=O)N(c1ccccc1)C1CCNCC1, which activity change, negative = inhibition is on record?
A: inactive: -6.31%

Q: CN(C)C1(CNC(=O)c2ccc(C(C)(C)C)cc2)CCCCC1 was tested. Which activity change, negative = inhibition did it give?
A: inactive: -13.2%

Q: How did the activity change, negative = inhibition turn out when COc1cc(OC)cc(C(=O)NCC2(N3CCCCC3)CCCCC2)c1 was run?
A: inactive: -2.62%

Q: Cc1ccccc1C(=O)NCC1(N(C)C)CCCCC1 was tested. Which activity change, negative = inhibition did it give?
A: inactive: -23.5%

Q: How did the activity change, negative = inhibition turn out when CC(C)(C)c1ccc(C(=O)NCC2(N3CCOCC3)CCCCC2)cc1 was run?
A: inactive: -19%

Q: Which activity change, negative = inhibition does the source give for O=C(NCC1(N2CCCCC2)CCCCC1)c1ccco1 here?
A: inactive: -15.9%

Q: With Cn1c(=O)[nH]cc(N(CCCl)CCCl)c1=O as the molecule, how does the activity change, negative = inhibition read?
A: inactive: -13.5%

Q: CN(C)c1ccc(C(=O)NCC2(N3CCCCC3)CCCCC2)cc1 was tested. Which activity change, negative = inhibition did it give?
A: inactive: -0.0459%

Q: With Cc1ccccc1NC1(C#N)CCN(Cc2ccccc2)CC1 as the molecule, how does the activity change, negative = inhibition read?
A: inactive: -11.5%

Q: For CCN1CCC(Nc2cccc(F)c2)CC1, which activity change, negative = inhibition is on record?
A: inactive: -16%

Q: How did the activity change, negative = inhibition turn out when CC(C)(C)OC(=O)N1CCC(Nc2ccccc2)CC1 was run?
A: inactive: -12.5%

Q: How did the activity change, negative = inhibition turn out when O=C(O)C1(Nc2ccccc2)CCN(Cc2ccccc2)CC1 was run?
A: inactive: -21.5%

Q: Which activity change, negative = inhibition does the source give for CCCOc1ccc(C(=O)NCC2(N(C)C)CCCCC2)cc1 here?
A: inactive: -24.6%

Q: With CCOc1ncccc1C(=O)NCC1(N2CCOCC2)CCCCC1 as the molecule, how does the activity change, negative = inhibition read?
A: inactive: -12%

Q: CN1CCC(Nc2ccc(F)c(Cl)c2)CC1 was tested. Which activity change, negative = inhibition did it give?
A: inactive: -26.8%

Q: For CN1CCC(Nc2ccc(Cl)cc2)CC1, which activity change, negative = inhibition is on record?
A: inactive: -16.2%

Q: For COc1cccc(C(=O)N(c2cc(C)cc(C)c2)C2CCN(C(=O)OC(C)(C)C)CC2)c1, which activity change, negative = inhibition is on record?
A: inactive: -9.66%

Q: For COc1cc(C(=O)NCC2(N3CCOCC3)CCCCC2)cc(OC)c1OC, which activity change, negative = inhibition is on record?
A: inactive: -20.7%

Q: Which activity change, negative = inhibition does the source give for COc1cc(OC)cc(C(=O)NCC2(N3CCOCC3)CCCCC2)c1 here?
A: inactive: -8%

Q: Which activity change, negative = inhibition does the source give for CCC(CO)(C(=O)OC1CN2CCC1CC2)c1ccccc1 (stereo not drawn) here?
A: inactive: -0.933%

Q: How did the activity change, negative = inhibition turn out when COc1ccc(C(=O)NCC2(N3CCOCC3)CCCCC2)cc1OC was run?
A: inactive: 10.3%

Q: For COc1cc(C(=O)NCC2(N3CCOCC3)CCCCC2)cc(OC)c1C, which activity change, negative = inhibition is on record?
A: inactive: -14.6%

Q: O=C(NCC1(N2CCOCC2)CCCCC1)c1cc(Br)ccc1Cl was tested. Which activity change, negative = inhibition did it give?
A: inactive: -21.1%

Q: O=C(OC1CN2CCC1CC2)C1c2ccccc2C=Cc2ccccc21 (stereo not drawn) was tested. Which activity change, negative = inhibition did it give?
A: inactive: -14.4%

Q: How did the activity change, negative = inhibition turn out when CCc1cc(C(=O)NCC2(N3CCCCC3)CCCCC2)sc1C was run?
A: inactive: -15.7%

Q: Which activity change, negative = inhibition does the source give for O=C(O)c1cccc(Nc2c([N+](=O)[O-])cc([N+](=O)[O-])cc2[N+](=O)[O-])c1 here?
A: inactive: -11%

Q: CCOC(=O)N1CCC(Nc2ccc(C)cc2)CC1 was tested. Which activity change, negative = inhibition did it give?
A: inactive: -15.5%

Q: With N/C(=N\O)c1c(N)no[n+]1[O-] as the molecule, how does the activity change, negative = inhibition read?
A: inactive: -15.8%

Q: With CCOC(=O)C(CC)C1=NC(C)(C)Cc2ccccc21.O=[N+]([O-])c1cc([N+](=O)[O-])c(O)c([N+](=O)[O-])c1 (stereo not drawn) as the molecule, how does the activity change, negative = inhibition read?
A: inactive: -22%

Q: How did the activity change, negative = inhibition turn out when O=C(NCC1(N2CCOCC2)CCCCC1)c1ccccc1[N+](=O)[O-] was run?
A: inactive: -25.3%

Q: How did the activity change, negative = inhibition turn out when N#Cc1ccc(C(=O)NCC2(N3CCCCC3)CCCCC2)cc1 was run?
A: inactive: -15.6%

Q: How did the activity change, negative = inhibition turn out when CC(C)(C)OC(=O)N1CCC(N(C(=O)c2ccccc2)c2ccc(Cl)cc2)CC1 was run?
A: inactive: -19.3%

Q: Which activity change, negative = inhibition does the source give for O=C(NCC1(N2CCOCC2)CCCCC1)c1ccc([N+](=O)[O-])cc1 here?
A: inactive: -31.1%

Q: How did the activity change, negative = inhibition turn out when CN(C)C1(CNC(=O)c2cccc(C#N)c2)CCCCC1 was run?
A: inactive: 4.57%

Q: How did the activity change, negative = inhibition turn out when c1ccc(CN2CCC(Nc3ccccc3)CC2)cc1 was run?
A: inactive: -20%

Q: With CCCN1CCC(Nc2cc(OC)cc(OC)c2)CC1 as the molecule, how does the activity change, negative = inhibition read?
A: inactive: -17.6%

Q: With Cc1cc(N(CCCl)CCCl)ccc1C=O as the molecule, how does the activity change, negative = inhibition read?
A: inactive: -17.4%

Q: With O=C(NCC1(N2CCOCC2)CCCCC1)c1ccccc1 as the molecule, how does the activity change, negative = inhibition read?
A: inactive: -11.7%

Q: CCN1CCC(Nc2ccc(Cl)cc2)CC1 was tested. Which activity change, negative = inhibition did it give?
A: inactive: -1.71%

Q: For N#CC1(Nc2ccccc2)CCN(CCc2ccccc2)CC1, which activity change, negative = inhibition is on record?
A: inactive: 3.46%

Q: How did the activity change, negative = inhibition turn out when O=C(NCC1(N2CCCCC2)CCCCC1)c1cccc([N+](=O)[O-])c1 was run?
A: inactive: 1.24%

Q: CCOc1ccc(C(=O)NCC2(N3CCOCC3)CCCCC2)cc1 was tested. Which activity change, negative = inhibition did it give?
A: inactive: -19.5%

Q: With CSc1ccc(C(=O)NCC2(N3CCOCC3)CCCCC2)cc1 as the molecule, how does the activity change, negative = inhibition read?
A: inactive: 0.646%

Q: Which activity change, negative = inhibition does the source give for O=C(NCC1(N2CCCCC2)CCCCC1)c1ccc(OC(F)F)cc1 here?
A: inactive: -15.1%

Q: Which activity change, negative = inhibition does the source give for O=C(NCC1(N2CCOCC2)CCCCC1)c1cc(=O)[nH]c2ccccc12 here?
A: inactive: -8.45%

Q: COc1cc(C(=O)NCC2(N3CCCCC3)CCCCC2)ccc1OC(F)F was tested. Which activity change, negative = inhibition did it give?
A: inactive: -15.5%

Q: COc1ccc(NC2CCN(C(=O)OC(C)(C)C)CC2)cc1 was tested. Which activity change, negative = inhibition did it give?
A: inactive: -19.7%

Q: How did the activity change, negative = inhibition turn out when CC(C)c1ccc(C(=O)NCC2(N3CCOCC3)CCCCC2)cc1 was run?
A: inactive: -7.19%

Q: How did the activity change, negative = inhibition turn out when CN1CCN(CCOC(=O)C(O)(c2ccccc2)c2ccccc2)CC1 was run?
A: inactive: -10.1%

Q: O=[N+]([O-])c1cc([N+](=O)[O-])c(NCC2CCS(=O)(=O)C2)c([N+](=O)[O-])c1 (stereo not drawn) was tested. Which activity change, negative = inhibition did it give?
A: inactive: -12%

Q: With O=C(NCC1(N2CCCCC2)CCCCC1)c1cccc(C(F)(F)F)c1 as the molecule, how does the activity change, negative = inhibition read?
A: inactive: 6.36%

Q: How did the activity change, negative = inhibition turn out when CCCOc1cccc(C(=O)NCC2(N3CCOCC3)CCCCC2)c1 was run?
A: inactive: 27.3%

Q: For COc1cc(OC)c(C(=O)NCC2(N(C)C)CCCCC2)cc1OC, which activity change, negative = inhibition is on record?
A: inactive: -6.73%

Q: For O=C(NCC1(N2CCOCC2)CCCCC1)c1cc(F)c(F)cc1Cl, which activity change, negative = inhibition is on record?
A: inactive: -16.3%

Q: Which activity change, negative = inhibition does the source give for CC(C)c1ccc(NC2CCN(C(=O)OC(C)(C)C)CC2)cc1 here?
A: inactive: -9.23%

Q: How did the activity change, negative = inhibition turn out when COc1ccc(CN(CCCl)CCCl)cc1Cl was run?
A: inactive: -26.1%

Q: How did the activity change, negative = inhibition turn out when CN(C)c1cccc(C(=O)NCC2(N3CCCCC3)CCCCC2)c1 was run?
A: inactive: -24.3%

Q: For O=[N+]([O-])c1cc([N+](=O)[O-])c(OC2CCCCC2O)c([N+](=O)[O-])c1 (stereo not drawn), which activity change, negative = inhibition is on record?
A: inactive: -13.2%

Q: With O=[N+]([O-])c1cc([N+](=O)[O-])c(Nc2ccc(Cl)cc2)c([N+](=O)[O-])c1 as the molecule, how does the activity change, negative = inhibition read?
A: inactive: -3.41%

Q: For Cc1ccc(C(=O)NCC2(N(C)C)CCCCC2)o1, which activity change, negative = inhibition is on record?
A: inactive: -16.9%
